{"source": "paper PMC3498954", "about": "(Chembiochem : a European journal of chemical biology, 2012)", "assay": "Biodistribution of albumin using 99mTc-Vasculosis", "assay_type": "in vivo", "conditions": "24h, average (±SD), n=3", "data": [{"substance": "^99mTc-HSA: 99mTc-labelled albumin (Vasculosis) used to determine the biodistribution of albumin", "values": [{"measurement": "Biodistribution of albumin, Axilary LN", "setting": "Axilary LN", "value": "1.86 (±0.26) % ID/g"}, {"measurement": "Biodistribution of albumin, Blood", "setting": "Blood", "value": "3.74 (±0.21) % ID/g"}, {"measurement": "Biodistribution of albumin, Brain", "setting": "Brain", "value": "0.10 (±0.01) % ID/g"}, {"measurement": "Biodistribution of albumin, Fat (neck)", "setting": "Fat (neck)", "value": "0.48 (±0.04) % ID/g"}, {"measurement": "Biodistribution of albumin, Heart", "setting": "Heart", "value": "1.31 (±0.24) % ID/g"}, {"measurement": "Biodistribution of albumin, Inguinal LN", "setting": "Inguinal LN", "value": "0.81 (±0.22) % ID/g"}, {"measurement": "Biodistribution of albumin, Intestines", "setting": "Intestines", "value": "1.83 (±0.12) % ID/g"}, {"measurement": "Biodistribution of albumin, Kidneys", "setting": "Kidneys", "value": "3.83 (±0.25) % ID/g"}, {"measurement": "Biodistribution of albumin, Liver", "setting": "Liver", "value": "1.98 (±0.16) % ID/g"}, {"measurement": "Biodistribution of albumin, Lungs", "setting": "Lungs", "value": "1.80 (±0.43) % ID/g"}, {"measurement": "Biodistribution of albumin, Mammary gland", "setting": "Mammary gland", "value": "0.68 (±0.40) % ID/g"}, {"measurement": "Biodistribution of albumin, Muscle (paw)", "setting": "Muscle (paw)", "value": "0.27 (±0.13) % ID/g"}, {"measurement": "Biodistribution of albumin, Spleen", "setting": "Spleen", "value": "1.52 (±0.16) % ID/g"}, {"measurement": "Biodistribution of albumin, Stomach", "setting": "Stomach", "value": "0.81 (±0.13) % ID/g"}]}]}
